{
  "source": "patent US6475993B2",
  "about": "“Treatment of hereditary diseases with gentamicin” (Universite Laval, priority 1998, dated 2002)",
  "experiment": "Blood concentration of gentamicin in mdx mice",
  "format": "in vivo",
  "conditions": "dose of about 35-40 mg/Kg/day gentamicin",
  "method": "In humans, the usual antibiotic dosage rate of gentamicin is of about 3-5 mg/Kg/day, non-divided dose, for intramuscular route of administration. To avoid toxicity, it is recommended that gentamicin dosage rates be adjusted to avoid blood concentrations higher than 12 μg/mL for prolonged periods of time. […] The blood circulation levels of gentamicin that would be effective in humans have not been calculated, but allometric calculation could bring a dose effective in mice close to an equivalent of about 1.5 to about 6 mg per Kg per day in humans. It is possible to co-administer agents to counteract the oto- or nephrotoxicity of high doses of gentamicin, such as 2,3 dihydroxybenzoate (DHB) as disclosed by Song and Schacht (1996) and by Pearce et al. (1985). Alternatively, aminoglycoside derivatives having an activity towards inserting an amino acid instead of stopping translation may be designed, taking gentamicin as a reference compound. […] Further, any mean by which gentamicin or gentamicin-like or derived molecules can be driven more directly to the site of action is within the scope of this invention.",
  "data": [
    {"substance": "gentamicin", "values": [
      {"measurement": "Blood concentration", "result": "about 65 μg/mL"}
    ]}
  ]
}
